Marks after values point to notes of the source that are not given here.
Test system: NCI-H2122 human non-small cell lung cancer model
Assay: In vivo anti-tumor evaluation in NCI-H2122 human non-small cell lung cancer model
Set-up: species or system BALB/c nude mice
Conditions: for Tumor volume After grafting Day 5: baseline at grouping, n=8
Protocol: During the study, the health of the animals was observed daily. If there was a 10% weight loss in the animals, the administration dose was halved; if there was a 15% weight loss, the […] until a normal body weight was restored; or if the tumor volume in the animals exceeded 2,000 mm^3, the mouse was euthanized immediately. If the health condition met the following criteria, euthanasia was performed by the veterinarian:
BALB/c nude mice, aged 6-8 weeks, female, purchased from Beijing Vital River Laboratory Animal Technology Co., Ltd., Certificate No. 20170011008676, and housed in an SPF-grade environment.
Preparation: the compound of the formula (II) was prepared in a vehicle of 5% DMSO+10% Solutol HS 15+85% (6% HP-β-CD); cetuximab was prepared in a 0.9% sodium chloride injection.
NCI-H2122 cells were cultured in an RPMI 1640 medium containing 10% of FBS and 1% of penicillin-streptomycin in an incubator at 37° C. and 5% CO2. The cells were digested with 0.25% trypsin-EDTA for passaging as per conventional practice. When the cells were in the logarithmic growth phase and the confluence reached […], the cells were collected and counted. The cells were collected and adjusted to a final concentration of 2.0×10^6 cells/mL. Mice were grafted subcutaneously at the right dorsal region in a volume of 0.15 mL/3×10^5 cells/mouse. When the tumors grew to an average size of about 242 mm^3 (D5 after grafting), 32 tumor-bearing mice were selected, randomized into 4 groups of 8 mice each as per the tumor volume and the body weight, and treated according to the administration regimen shown in Table 1. The dose in mice was 10 mL/kg. The mice were weighed on an electronic balance twice weekly and the tumor volume was measured with a vernier caliper twice weekly. The study was ended on D17 after grafting, and the mice were euthanized after tumor volume measurement.
Tumor volume (TV)=(L×W^2)/2, where L denotes the long diameter of the tumor, and W is the short diameter of the tumor.
TGI (%)=[1−(avTi-0/avCi-0)]×100%, where avTi-0 denotes the average tumor volume of the treatment group on a specific day minus the average tumor volume of the treatment group at the baseline; avCi-0 denotes the average tumor volume of the vehicle control group on a specific day minus the average tumor volume of the vehicle control group at the baseline.
TWI=(1−TWtreatment/Dx/TWcontrol/Dx)×100%, where TWcontrol denotes the average tumor weight (g) of the control group, and TWtreatment denotes the average tumor weight (g) of the treatment group.
RCBW (%)=(BWi−BW0)/BW0×100%, where BWi is the body weight of a mouse on a specific day and BW0 is the body weight of the mouse at the baseline.
All experimental data analysis and graphing were performed using GraphPad Prism software (GraphPad Software). Tumor volumes and the body weights of the animals in all groups were statistically compared using two-way ANOVA, Dunnett's multiple comparisons test. Tumor weights of the groups at the endpoint were statistically compared using one-way ANOVA, Dunnett's multiple comparisons test. P<0.05 denotes a statistically significant difference. The tumor volume and weight and body weight of animals are expressed by mean±standard error (SEM).

[1] = mean ± SEM, compound of formula (II) 10 mpk p.o. q.d., cetuximab 1 mpk i.p. biw
[2] = Day 17, compound of formula (II) 10 mpk p.o. q.d., cetuximab 1 mpk i.p. biw
[3] = after 12 days treatment, mean ± SEM, compound of formula (II) 10 mpk p.o. q.d., cetuximab 1 mpk i.p. biw

Row | Molecule | Tumor volume After grafting Day 5 [1] [mm^3] | TGI [2] [%] | TWI [2] [%] | RCBW (relative change of body weight) (Day 17 vs baseline, mean ± SEM, compound of formula (II) 10 mpk p.o. q.d., cetuximab 1 mpk i.p. biw) [%] | Body weight After grafting Day 17 [3] [g] | Tumor volume After grafting Day17 [3] | Body weight After grafting Day 5 (baseline, mean ± SEM) [g] | Tumor weight After grafting Day 17 (endpoint, mean ± SEM, compound of formula (II) 10 mpk p.o. q.d., cetuximab 1 mpk i.p. biw) [g]
1 | C=CC(=O)N1CCN2c3c(c(=O)n(-c4c(C)ccnc4C(C)C)c4nc(-c5c(O)cccc5F)c(Cl)cc34)N(C)C(=O)[C@H]2C1 [Compound of formula (II), (4aR,8R)-3-acryloyl-11-chloro-10-(2-fluoro-6-hydroxyphenyl)-8-(2-isopropyl-4-methylpyridin-3-yl)-6-methyl-2,3,4,4a,6,8-hexahydro-1H-pyrazino[1′,2′: 4,5] pyrazino[2,3-c][1,8]naphthyridine-5,7-dione] | 242.93 ± 11.14 | – | – | – | – | – | – | –
2 | Cetuximab | 242.79 ± 10.09 | 50.11 | 13.24 | −6.46 ± 1.28 | 19.74 ± 0.25 | 692.74 ± 62.50*** mm^3 | 21.11 ± 0.24 | 0.52 ± 0.05

Source: US20250221989A1, “PHARMACEUTICAL COMPOSITION, USE THEREOF, AND METHOD FOR TREATING CANCER” (Genfleet Therapeutics (Shanghai) Inc., priority 2022, published 2025)
